From patent EP4692081A1, “PREPARATION METHOD FOR NAPHTHOISOXAZOLE COMPOUND” (priority 2023, dated 2024)
Structures can show the parent of a compound that is named as a salt.

Test: Pharmacokinetic evaluation in beagle dogs
Type: in vivo, Male beagle dogs
Settings: Intragastric Administration (5 mg/kg), fed
Excerpt: Male beagle dogs were selected as the experimental animals in this study. The LC/MS/MS method was employed to quantitatively determine the plasma drug concentrations at different time points after intravenous injection or intragastric administration of the test compound, aiming to evaluate the pharmacokinetic characteristics of the compound of the present disclosure in beagle dogs.
Beagle dogs (male, 7 to 10 kg, Beijing Mars Biotechnology Co., Ltd.).
A clear solution of the test compound was slowly injected intravenously into beagle dogs (fed) via the peripheral vein (vehicle: 5% DMSO/10% Solutol/85% H2O), or administered intragastrically to beagle dogs (fed). For intravenous administration, 0.5 mL of blood was collected from the peripheral vein at 0.083, 0.25, 0.5, 1, 2, 4, 6, 8, and 24 h after administration, placed in EDTA-2K anticoagulant tubes, and centrifuged at 3200 g for 10 minutes at 2 to 8°C to separate the supernatant. […] Plasma drug concentrations were determined by the LC-MS/MS method, and relevant pharmacokinetic parameters were calculated using Phoenix WinNonlin 6.3 pharmacokinetic software with non-compartmental model linear-log trapezoidal method.

## O=C1CCC(c2noc3ccc4c(NC(=O)CN5CCN(C[C@H]6CC[C@H](n7cc(NC(=O)c8coc(-c9ccnc(NCC%10CC%10)c9)n8)c(C(F)F)n7)CC6)CC5)cccc4c23)C(=O)N1 (stereo partly shown) [Hydrochloride of Compound of Formula (I)]
  Bioavailability F: 72.6%
